Results: patent US6803371B2, “Purine inhibitors of protein kinases, G proteins and polymerases” (The Regents of the University of California, priority 1997, dated 2004)

Target: CDK2/cyclinE (Homo sapiens, UniProt P24941)
Test: CDK2/cyclinE kinase inhibition
Format: biochemical
Details: read-out: IC50 (additional kinases) CDK2/cyclinE

SMILES: COc1ccc(CNc2nc(N[C@@H](CO)C(C)C)nc3c2ncn3C(C)C)cc1 [NG-75]
- IC50: 0.14 µM
